Yeast UUG start: yeast start codon fidelity modulation. S. cerevisiae UUG-firefly luciferase reporter, luminescence/redox ratio. activity score, % at 18.7 µM. 0.13% of 350,000 active;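 active = replicate mean at a twofold rise or more, about +100% in these data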;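 also: firefly luciferase made from a UUG start codon reports start codon fidelity; reporter light over untreated wells divided by growth signal over untreated wells; some hits fall short of that in this replicate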
AF4-AF9 inh: inhibitors of human MLL-AF4/AF9 interaction. AID 651704. inhibition, % at 10 µM. 350,000 compounds, 0.47% hits. P42568. AlphaScreen, biotin-AF4 peptide binding to FLAG-AF9;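 active means every replicate reaching a set inhibition limit, whatever the replicate mean, cut at about 25% in these data; inconclusive means mean inhibition reaches that limit but some replicates miss it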
SIRT5 block: sirtuin-5 (human) deacylase inhibition; Q9NXA8; Purified SirT5, succinyl-peptide AMC, trypsin-coupled fluorescence; inhibition, % at 15 µM; 330,000 compounds, 1.1% hits; in the data active means inhibition above about 15%; inconclusive means no clear call, values can overlap the other calls
E-selectin induc: E-selectin induction on HUVECs; HUVEC E-selectin immunofluorescence imaging; normalized: neutral wells 0, TNF-alpha wells 100; 260,000 compounds, 0.37% hits; AID 686992; activation, % at 7.58 µM; P16581;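 active means mean E-selectin-positive cell signal at least 10% of the positive control, reached in at least 60% of replicates, without over 20% cell loss; inconclusive means no rule given, readout overlaps actives, possibly toxicity-flagged; inactive means the rest, including those meeting only one limit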
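Assay system: HUVEC, human umbilical vein endothelial cells / Amount: 3,000 HUVEC/well / Controls: TNF-alpha positive control, DMSO neutral control / Compound dosing: single concentration / Medium: EGM-2 over gelatin coat / Evaluation: percent E-selectin-positive cells / Signal: immunofluorescence imaging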
RAD52 anneal inh: blocks human RAD52 DNA annealing | P43351 | recombinant RAD52 DNA annealing, FRET fluorescence | inhibition, % at 18.7 µM | 360,000 compounds, 0.46% hits;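 active means every replicate showing at least 50% inhibition; inconclusive means mean inhibition at least 50% but not in every replicate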
RAD54 inh: RAD54 (human) branch migration inhibition; RAD54 Holliday junction branch migration, FAM/BHQ fluorescence; Q92698; 360,000 compounds, 0.14% hits; AID 602329; inhibition, % at 10.4 µM;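 active means mean normalized replicate activity at least 40 and at least half of replicates scoring 40 or more; inconclusive means only one of the two criteria met; inactive means mean below 40 and under half of replicates reaching 40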;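 further: inhibitors cause a drop in the FAM fluorescence signal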
DNA binding: binds DNA, flagging false Rad54 inhibitor hits; AID 651673; Acridine orange-DNA displacement, fluorescence polarization, 20 min; 460 compounds, 8% hits; AC50, µM (doses to about 35 µM); shares compounds with RAD54 inh;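 active means signal drop giving an AC50 within twice the top valid tested concentration of each sample, actives reach about 35 µM in these data; inactive means activity opposite to expected, plus the rest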;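 further: polarization loss reports compound binding to salmon sperm DNA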
DNA binder FP: DNA binding artifact in RAD52 counter-screen. shares compounds with RAD52 anneal inh. Salmon sperm DNA/acridine orange FP displacement. AC50, µM. 1,000 compounds, 8% hits. AID 652128;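 active means fitted half-maximal concentration for signal loss at or below twice the highest dose tested, in every separate run, actives reach about 64 µM in these data; inconclusive means runs disagree, or flat partial signal loss, or poor fit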
Numbers stand for hits; 0 = inactive; ? = inconclusive; - = no result given; ! = repeats disagree. Shown are actives, neighbours in structure and some others; about 1.8% of the full set was active somewhere.

SMILES | Yeast UUG start | AF4-AF9 inh | SIRT5 block | E-selectin induc | RAD52 anneal inh | RAD54 inh | DNA binding | DNA binder FP
C[C@H]1CCCCO[C@H](CN(C)S(=O)(=O)c2ccccc2)[C@@H](C)CN([C@@H](C)CO)C(=O)c2cc(N(C)C)ccc2O1 | 0 | 0 | 0 | 0 | 0 | 0 | - | -
COc1cc(C)c2sc3ccccc3c(=O)c2c1NCCN(C)C | 0 | 45 | 0 | 0 | 94 | 93 | 9.3µM | 18µM
Cc1cc(C)c2c(c1)c1nnc(SCCN3CCCCC3)nc1n2C | 0 | 0 | 0 | 0 | 86 | 73 | 0 | 0
CN(C)CCCNc1nc2cc(-c3cncnc3)sc2c(=O)n1C | 0 | 0 | - | 0 | 0 | 0 | - | -
CN(C)CCCNc1nc2cc(-c3ccc(F)cc3)sc2c(=O)n1C | 0 | 0 | - | 0 | 71 | 70 | 0 | 0
CN(C)CCCNc1nc2cc(-c3ccccc3)sc2c(=O)n1C | 0 | 0 | 0 | 0 | 54 | ? | 0 | 0
COc1ccc(NC(=O)Nc2ccc3c(c2)[C@@H]2C[C@H](CC(=O)N[C@@H](C)c4ccccc4)O[C@H](CO)[C@@H]2O3)cc1 | - | 0 | 0 | 0 | 0 | - | - | -
COCCCNC(=O)c1cc2c(-c3cccc(OC)c3)nn(C)c2s1 | 0 | 0 | 0 | 0 | 0 | 0 | - | -
COc1ccc(-c2nn(C)c3sc(C(=O)NCCN(C)C)cc23)cc1OC | 0 | 0 | 0 | 0 | 101 | 97 | 0 | 0
CCCN(CCC)CCCNC(=O)c1cc2c(-c3ccc(OC)c(OC)c3)nn(C)c2s1 | 0 | 0 | 0 | 0 | 90 | 104 | 0 | 0
COc1ccc(Nc2nc(NCC3CCCO3)c3ccccc3n2)c(OC)c1 (stereo unspecified) | 0 | 0 | 0 | - | 54 | ? | 0 | 0
Cc1ccc(C(=O)c2oc3ccc(Cl)cc3c2NC(=O)CN2CCN(C)CC2)cc1 | 0 | 31 | 0 | 0 | 82 | 82 | 0 | 0
CCCNC(=O)C[C@@H]1CC[C@H]2[C@H](COc3ccc(NC(=O)c4cccc(C(F)(F)F)c4)cc3C(=O)N2C)O1 | 0 | 0 | 0 | 0 | 0 | 0 | - | -
CCC(=O)N1CC2(C1)[C@H](c1ccccc1)[C@H](CO)N2CC1CCOCC1 | - | 0 | 0 | 0 | 0 | - | - | -
OC(CN1CCN(c2ccccn2)CC1)Cn1c2ccc(Cl)cc2c2cc(Cl)ccc21 (stereo unspecified) | 0 | - | - | - | - | 0 | - | -
OC(CN1CCCCC1)Cn1c2ccc(Cl)cc2c2cc(Cl)ccc21 (stereo unspecified) | 0 | 0 | 0 | 0 | 59 | 55 | 0 | 0
CCc1ccc(NC(=S)/N=C(\N)Nc2nc(C)c3cc(CC)ccc3n2)cc1 | - | 0 | 0 | - | 0 | - | - | -
CCc1ccc2nc3nc(C)cc(C)c3c(N)c2c1 | 0 | 0 | 0 | - | 83 | 88 | 0 | 0
CCN1CCN(c2ccc(NC(=O)c3ccccc3F)cc2Cl)CC1 | 0 | 0 | 0 | 0 | 0 | 0 | - | -
CCN1CCN(c2ccc(NC(=O)c3cc4ccccc4cc3OC)cc2C)CC1 | 0 | 0 | 0 | 0 | 83 | 54 | 0 | 0
CCN(CC)Cc1cc(Nc2ccnc3cc(Cl)ccc23)ccc1O | 0 | 0 | 0 | 0 | 88! | 75! | 0 | 0
CCN(CC)CCNc1ccnc2cc(Cl)ccc12 | 0 | 0 | 0 | - | 0 | 0 | - | -
COc1ccc(-c2cnc3c(c2)C(=O)N([C@@H](C)CO)C[C@@H](C)[C@@H](CN(C)C(=O)CN(C)C)O3)cc1 | 0 | 0 | 0 | 0 | 0 | 0 | - | -
Cc1ccc(S(=O)(=O)Nc2ccc3c(c2)C(=O)N([C@H](C)CO)C[C@H](C)[C@H](CN(C)S(=O)(=O)c2cccs2)OCCCC[C@H](C)O3)cc1 | 0 | 0 | 0 | 0 | 0 | 0 | - | -
CN(C)CCCN1C(=O)c2cccc3cccc(c23)C1=O | 0 | 0 | 0 | - | 58 | 102 | 0 | 0
SMILES | Yeast UUG start | AF4-AF9 inh | SIRT5 block | E-selectin induc | RAD52 anneal inh | RAD54 inh | DNA binding | DNA binder FP
CCN(CC)CC(O)c1ccc2ccc3ccc(O)cc3c2c1 (stereo unspecified) | 0 | 0 | 0 | 0 | 72 | 68 | 0 | 0
CCN(CC)CC(O)Cn1c2ccccc2c2ccccc21 (stereo unspecified) | 0 | - | - | - | - | 0 | - | -
CCN1CCN(c2cc(C)c3cc(NC(=O)Cc4ccccc4OC)ccc3n2)CC1 | 0 | - | - | - | - | 0 | - | -
CCN(CC)CCNC(=S)Nc1ccc2nc(N3CCN(CC)CC3)cc(C)c2c1 | 0 | 0 | 0 | 0 | 93 | 79 | 0 | 0
CCCCN(CC)C(=S)Nc1ccc2nc(N3CCN(C)CC3)cc(C)c2c1 | 0 | 0 | 0 | - | 0 | 0 | - | -
CCCN1CCN(CCCNC(=S)Nc2ccc3nc(N4CCN(CC)CC4)cc(C)c3c2)CC1 | 0 | 0 | 0 | 0 | 99 | 110 | 0 | 0
CCCCNC(=O)CCC(=O)Nc1ccc2nc(N3CCN(C)CC3)cc(C)c2c1 | 0 | 0 | 0 | 0 | 0 | 0 | - | -
Cc1cc(N2CCN(C)CC2)nc2ccc(NC(=S)NCCCN3CCc4ccccc4C3)cc12 | 0 | 0 | 0 | 0 | 100 | 80 | 0 | 0
CCOC(=O)N1CCC(NC(=S)Nc2ccc3nc(N4CCN(CC)CC4)cc(C)c3c2)CC1 | - | 0 | 0 | 0 | 0 | - | - | -
CCN1CCN(c2cc(C)c3cc(NC(=S)NCCCN4CCc5ccccc5C4)ccc3n2)CC1 | 0 | ? | 0 | 0 | 106 | 98 | 0 | 0
COc1ccc(-c2ccccc2[C@H]2[C@@H](C#N)N(C(=O)C3CCCC3)[C@H]2CO)cc1 | - | 0 | 0 | 0 | 0 | - | - | -
Cc1ccc(S(=O)(=O)Nc2ccc3c(c2)CC(=O)N([C@@H](C)CO)C[C@@H](C)[C@H](CN(C)Cc2ccc(Cl)c(Cl)c2)O3)cc1 | 0 | 0 | 0 | 0 | 0 | 0 | - | -
CCN(C[C@H]1[C@H](c2ccccc2)[C@@H](CO)N1C(C)=O)C(=O)NC(C)C | 0 | 0 | 0 | 0 | 0 | 0 | - | -
COc1ccc2c3c(n(C)c2c1)[C@@H](CO)N(Cc1ccc2c(c1)OCO2)CC31CCN(C(=O)C2CC2)CC1 | - | 0 | - | 0 | - | - | - | -
Cc1[nH]ccc2cc3nc4ccccc4c3cc12 | 0 | 0 | 0 | 0 | 101 | 83 | 0 | ?
CCOCCCNC(=O)c1cc2c(-c3ccc(Cl)cc3)nn(C)c2s1 | 0 | 0 | - | - | 0 | 0 | - | -
CCCN(CCC)CCNC(=O)c1cc2c(-c3ccc(Cl)cc3)nn(C)c2s1 | 0 | 0 | 0 | 0 | 52 | 61 | 0 | 0
CCCCN(CC)CCNC(=O)c1cc2c(-c3ccc(Cl)cc3)nn(C)c2s1 | 0 | 0 | 0 | 0 | 50 | 82 | 0 | 0
O=C(c1ccccc1F)N1CC[C@@H]2[C@@H](CO)Nc3ccc(C#Cc4ccc(F)cc4)cc3[C@@H]21 | 0 | - | - | 0 | - | 0 | - | -
COc1ccccc1Nc1nc(NCCCN(C)C)nc(N)c1[N+](=O)[O-] | 0 | 0 | 0 | 0 | 95 | 77 | 0 | 0
C[C@@H]1CN([C@H](C)CO)S(=O)(=O)c2ccc(-c3cccnc3)cc2O[C@H]1CN(C)C | 0 | 0 | 0 | 0 | 0 | 0 | - | -
CC(C)CNc1ncnc2c1sc1nc(N3CCOCC3)c3c(c12)CC(C)(C)OC3 | 0 | - | - | - | - | 0 | - | -

Source: PubChem BioAssay
